{
  "source": "patent US6521633B2",
  "about": "“Treating NIDDM with RXR agonists” (Ligand Pharmaceuticals Incorporated, priority 1995, dated 2003)",
  "key": {"[1]": {"test_system": "LPL (lipoprotein lipase) mRNA and PPARγ mRNA", "assay": "Northern blot analysis of adipocyte specific genes in 3T3-LI cells", "type": "cell-based, mouse", "details": "3T3-LI treated for 7 days; BRL 49653 1 μM, LG 100268 1 μM, insulin 0.01 mg/ml"}, "[2]": {"test_system": "C3H/10T1/2 cells", "assay": "Oil red O staining of C3H/10T1/2 cells", "type": "cell-based, mouse", "details": "for Experiment B (+BRL + Insulin) % differentiated cells / Experiment A (+BRL) % differentiated cells: 7 days"}},
  "data": [
    {"smiles": "CN(CCOc1ccc(CC2SC(=O)NC2=O)cc1)c1ccccn1", "note": "(stereo not shown) [BRL 49653, 5-[[4-[2-(methyl-2-pyridinylamino)ethoxy]phenyl]methyl]-2,4-thiazolidinedione]", "values": [
      {"measurement": "LPL and PPARγ mRNA levels, relative signal normalized to β-actin", "setting": "[1]", "result": "three to five fold increase"},
      {"measurement": "Experiment B (+BRL + Insulin) % differentiated cells", "setting": "[2]; BRL 0.1 μM + insulin 0.01 mg/ml, alone or plus ALRT 1057 1 μM or LGD 1069 1 μM", "result": 60, "unit": "%"},
      {"measurement": "Experiment A (+BRL) % differentiated cells", "setting": "[2]; BRL 0.1 μM alone or plus ALRT 1057 1 μM, LGD 1069 1 μM or TTNPB 10 nM", "result": 5, "unit": "%"},
      {"measurement": "Experiment B (+BRL + Insulin) % differentiated cells", "setting": "[2]; BRL 1 μM + insulin 0.01 mg/ml", "result": 80, "unit": "%"},
      {"measurement": "Experiment A (+BRL) % differentiated cells", "setting": "[2]; BRL 1 μM", "result": 8, "unit": "%"},
      {"measurement": "Experiment B (+BRL + Insulin) % differentiated cells", "setting": "[2]; BRL 10 μM + insulin 0.01 mg/ml, alone or plus ALRT 1057 1 μM, LGD 1069 1 μM or TTNPB 10 nM", "result": 80, "unit": "%"},
      {"measurement": "Experiment A (+BRL) % differentiated cells", "setting": "[2]; BRL 10 μM alone or plus ALRT 1057 1 μM, LGD 1069 1 μM or TTNPB 10 nM", "result": 10, "unit": "%"},
      {"measurement": "cells undergoing adipocyte differentiation", "setting": "[2]; BRL 49653 alone", "result": "no more than 10%"},
      {"measurement": "Experiment B (+BRL + Insulin) % differentiated cells", "setting": "[2]; middle group r17-r20, headed BRL (0.1 μM), + insulin 0.01 mg/ml, alone or plus ALRT 1057 1 μM, LGD 1069 1 μM or TTNPB 10 nM", "result": 80, "unit": "%"},
      {"measurement": "Experiment A (+BRL) % differentiated cells", "setting": "[2]; middle group r17-r20, headed BRL (0.1 μM), alone or plus ALRT 1057 1 μM, LGD 1069 1 μM or TTNPB 10 nM", "result": 8, "unit": "%"}
    ]}
  ]
}
